Where “and” joins values, the source holds several entries; their conditions need not be identical. Identical values can stand only once. Like-named read-outs stand apart in the source and are kept apart here.
Assays:
[1] = molecular target: SOCS2^32-198-EloB/C (human) (UniProt O14508); assay: ITC; 298 K, Microcal ITC200; 25 mM Hepes pH 7.5, 150 mM NaCl, 2 mM TCEP; typically 12 x 3.25 µL of 240 µM peptide (syringe) into 30 µM SOCS-EloB/C (cell); where a second peptide or Cullin5 NTD stands in the cell the protein was with it beforehand (25 µM SOCS2-EloB/C pre-incubated with 60 µM F3); single-site fit
[2] = molecular target: SOCS2-Elo B/C + GHR pY595 (UniProt O14508); assay: as above
[3] = molecular target: SOCS2^32-198-EloB/C (human) (UniProt O14508); assay: as above; remark: listed apart in the source
[4] = molecular target: SOCS2^32-198-EloB/C (human) (UniProt O14508); assay: ITC; 298 K; typically 240 μM peptide titrated into 30 μM SOCS-EloB/C; 25 mM Hepes pH 7.5, 150 mM NaCl, 2 mM TCEP; single-site fit
[5] = molecular target: CIS-Elo B/C (human) (UniProt Q9NSE2); assay: ITC; 298 K, Microcal ITC200; 25 mM Hepes pH 7.5, 150 mM NaCl, 2 mM TCEP; typically 12 x 3.25 µL of 240 µM peptide (syringe) into 30 µM SOCS-EloB/C (cell); where a second peptide or Cullin5 NTD stands in the cell the protein was with it beforehand (25 µM SOCS2-EloB/C pre-incubated with 60 µM F3); single-site fit
[6] = molecular target: CIS-Elo B/C + F3 (human) (UniProt Q9NSE2); assay: as above
[7] = molecular target: SOCS2^32-198-EloB/C (human) (UniProt O14508); assay: ITC; 298 K; typically 240 μM peptide titrated into 30 μM SOCS-EloB/C; 25 mM Hepes pH 7.5, 150 mM NaCl, 2 mM TCEP; single-site fit; remark: listed apart in the source

Row | Kd [1] | Ka [2] [M⁻¹] | Kd [2] [µM] | stoichiometry N [2] | Kd [3] | Substance | also measured
1 | 19.3 µM | 1.08e+06 | 0.93 | 0.834 | 32.6 µM and 6.02 µM | C4 peptide | –
2 | 4.17 µM | 4.69e+06 | 0.21 | 0.791 | 2.59 µM and 5.75 µM | E11 peptide | Ka [3]: 386000 M⁻¹ and 174000 M⁻¹; stoichiometry N [3]: 0.578 and 0.828
3 | 3.39 µM and 2.96 µM | – | – | – | – | F3 D9A peptide | Ka [1]: 311000 M⁻¹ and 341000 M⁻¹; stoichiometry N [1]: 0.78 and 0.79
4 | – | – | – | – | – | F3 peptide D9A | Kd [4]: 3.18 µM
5 | – | – | – | – | – | JAK3 pY980/981 peptide | Kd [5]: 0.8 µM; Ka [6]: 1.99e+07 M⁻¹; Kd [6]: 0.05 µM; stoichiometry N [6]: 0.634
6 | – | – | – | – | – | three unique non-phosphorylated peptides | Kd [7]: 1.68 to 19.3 µM

Reference: PMC8640019, “Discovery of an exosite on the SOCS2-SH2 domain that enhances SH2 binding to phosphorylated ligands” (Nature Communications, 2021)
